The subject of data set [1] is human cultured epidermal model (LabCyte EPI-MODEL12). Particulars: pregabalin 10 mg/mL in 100 mmol/L aqueous solution or dispersion of the ionic liquid, 300 μL donor, 37° C., control in water 252. As for the experimental part:
A human cultured epidermal model (LabCyte EPI-MODEL12, Japan Tissue Engineering Co., Ltd.) was used. The phase on the stratum corneum side of the model was defined as a donor phase, whereas the phase on the stratum basal side of the model was defined as a receptor phase. Whether a temperature-responsive ionic liquid enhances the permeation of pregabalin from the donor phase to the receptor phase was examined. The test was carried out in an incubator of 37° C. Pregabalin was dissolved in water, or a 100 mmol/L aqueous solution or water dispersion of a temperature-responsive ionic liquid to a concentration of 10 mg/mL. Each solution (300 μL) was added to the donor phase. Twenty-four hours later, a receptor fluid was sampled and analyzed by LC-MS/MS to obtain the amount of pregabalin permeated. The Hanks' balanced salt solution was used as the receptor fluid.

For data set [2] the following is noted: mixture of ionic liquid and water as obtained in the synthesis. On the procedure:
(§1) Whether an ionic liquid is a temperature-responsive ionic liquid having a lower critical solution temperature (LCST-type temperature-responsive ionic liquid) is determined by measuring the absorbance of the liquid at a wavelength within a visible light region while gradually increasing the temperature and observing white turbidity, in other words, an abrupt increase in absorbance at a certain temperature caused by an increase in degree of hydrophobicity. The specific procedure is as follows. First, a mixture of an ionic liquid and water is prepared and the layer state at room temperature is observed. Then, the mixture is placed in a refrigerator of 4° C., sufficiently stirred and allowed to stand still for one hour. The state of the mixture is observed. If the layer state of the ionic liquid-water mixture at room temperature is the same as the layer state at 4° C., the mixture is increased in temperature at a rate of 0.5° C./minute within the range of 20° C. to 95° C. and the absorbance of the mixture is measured at 450 nm. Based on a change in absorbance, whether the ionic liquid thus measured is LCST-type temperature-responsive ionic liquid or not can be checked.
(§2) More specifically, the temperature responsive property was examined by measuring a absorbance at 450 nm at different temperatures in the following measurement conditions to obtain a change in absorbance.

Data set [3] is described as follows: Confirmation of temperature responsive property of ionic liquid (lower critical solution temperature by absorbance at 450 nm). Format: physicochemical. Particulars: for LCST (lower critical solution temperature): ionic liquid-water sample, absorbance 450 nm, UV1650PC, heating 20° C.→95° C. (0.5° C./minute), initial waiting 10 minutes. As for the experimental part:
as §1
The obtained data of absorbance change can be analyzed by differential calculus according to Tm (nucleic acid melting temperature) analysis program to obtain the lower critical solution temperature. In contrast, if the phase state of the ionic liquid-water mixture at room temperature is different from the state at 4° C., the mixture is increased in temperature at a rate of 0.5° C./minute within the range of 5° C. to 40° C. and the absorbance of the mixture is measured at 450 nm. Based on a change in absorbance, whether the ionic liquid thus measured is LCST-type temperature-responsive ionic liquid or not can be checked.
as §2
(0.5° C./minute) • Analysis method: calculation by differential calculus using Tm (nucleic acid melting temperature) analysis program
(§3) (0.5° C./minute) • Analysis method: calculation by differential calculus using Tm (nucleic acid melting temperature) analysis program.
as §3

The subject of data set [4] is human cultured epidermal model (LabCyte EPI-MODEL12). Particulars: 37° C. On the procedure: A human cultured epidermal model (LabCyte EPI-MODEL12, Japan Tissue Engineering Co., Ltd.) was used. The phase on the stratum corneum side of the model was defined as a donor phase, whereas the phase on the stratum basal side of the model was defined as a receptor phase. […] The test was carried out in an incubator of 37° C. […] Each solution (300 μL) was added to the donor phase. […] The Hanks' balanced salt solution was used as the receptor fluid.

Consider “diisopropanolammonium decanoate [Reference Example 4-sample, reference compound]”, for which the “24-hour Cumulative permeation amount of pregabalin” value in data set [1] was 493 μg/cm^2.

As for “tetrabutylammonium 4-(trifluoromethyl)salicylate [Synthesis Example 10-sample]”, the “compatibility with water at room temperature” value (shortened to “compatibility with water”) in data set [2] is listed as “separated from water at room temperature”. For the same substance, the “24-hour Cumulative permeation amount of pregabalin” value in data set [1] came to 3480 μg/cm^2. Further, in data set [3], the “LCST (lower critical solution temperature)” value worked out at 23.7 °C.

With “tetrabutylammonium salicylate [Synthesis Example 11-sample]”, the “compatibility with water” value in data set [2] is on record as “compatible with water at room temperature”. Also, the “24-hour Cumulative permeation amount of pregabalin” value in data set [1] is 1120 μg/cm^2. For the same substance, the “LCST (lower critical solution temperature)” value in data set [3] came out at 37.2 °C.

Take “tetrabutylphosphonium 3-carboxy-4-hydroxybenzene-sulfonate [Synthesis Example 8-sample]”: in data set [3], the “LCST (lower critical solution temperature)” value came to 29.6 °C.

On to “tetrabutylphosphonium 3-methylsalicylate [Synthesis Example 3-sample]”, for which, in data set [2], the “compatibility with water” value is recorded as “compatible with water at room temperature”. Further, the “LCST (lower critical solution temperature)” value in data set [3] was 23.5 °C.

With “tetrabutylphosphonium 4-aminosalicylate [Reference Example 1-sample, reference compound]”, in data set [3] (change in absorbance at 450 nm with temperature), the temperature responsive property result is “does not exhibit a temperature responsive property”. For the same substance, the “LCST (lower critical solution temperature)” value in data set [3] is “None”.

Take “tetrabutylphosphonium 4-aminotoluene-3-sulfonate [Synthesis Example 14-sample]”: in data set [2], the “compatibility with water” value is listed as “compatible with water at room temperature”. The “LCST (lower critical solution temperature)” value in data set [3] stood at 41.4 °C.

In the case of “tetrabutylphosphonium 4-chlorosalicylate [Synthesis Example 5-sample]”, the “LCST (lower critical solution temperature)” value in data set [3] turned out to be 29.7 °C.

On to “tetrabutylphosphonium 4-hydroxybenzenesulfonate [Synthesis Example 13-sample]”, for which the “compatibility with water” value in data set [2] is on record as “separated from water at room temperature”. In addition, the “LCST (lower critical solution temperature)” value in data set [3] is 24.7 °C.

For the substance “tetrabutylphosphonium 4-methylsalicylate [Synthesis Example 4-sample]”, the “compatibility with water” value in data set [2] was “compatible with water at room temperature”. Also, the “LCST (lower critical solution temperature)” value in data set [3] came out at 24.5 °C.

On to “tetrabutylphosphonium 5-bromosalicylate [Synthesis Example 2-sample]”, for which, in data set [2], the “compatibility with water” value is “separated from water at room temperature”. The “LCST (lower critical solution temperature)” value in data set [3] amounted to 27.7 °C.

Take “tetrabutylphosphonium 5-chlorosalicylate [Synthesis Example 6-sample]”: the “LCST (lower critical solution temperature)” value in data set [3] is 32.4 °C.

As to “tetrabutylphosphonium 5-iodosalicylate [Synthesis Example 7-sample]”, the “LCST (lower critical solution temperature)” value in data set [3] was 32.7 °C.

Regarding “tetrabutylphosphonium m-xylene-4-sulfonate [Synthesis Example 15-sample]”, the “compatibility with water” value in data set [2] is given as “separated from water at room temperature”. Also, the “24-hour Cumulative permeation amount of pregabalin” value in data set [1] worked out at 1100 μg/cm^2. Also, the “LCST (lower critical solution temperature)” value in data set [3] came out at 23.7 °C.

On to “tetrabutylphosphonium salicylate [Synthesis Example 9-sample]”, for which the “compatibility with water” value in data set [2] was “compatible with water at room temperature”. In data set [1], the “24-hour Cumulative permeation amount of pregabalin” value was determined as 3410 μg/cm^2. In addition, the “LCST (lower critical solution temperature)” value in data set [3] is 25.7 °C. In data set [4] (etodolac in 100 mmol/L aqueous solution of the ionic liquid, 300 μL donor, control in 0.5% methyl cellulose 34.9), the “24-hour Cumulative permeation amount of etodolac” value is reported as 42.5 μg/cm^2. For the same substance, in data set [4] (lidocaine hydrochloride monohydrate 10 mg/mL in 100 mmol/L aqueous solution or dispersion of the ionic liquid, control in water 308), the “24-hour Cumulative permeation amount of lidocaine hydrochloride monohydrate” value is on record as 829 μg/cm^2. Further, the “24-hour Cumulative permeation amount of tramadol hydrochloride” value in data set [4] (tramadol hydrochloride 10 mg/mL in 100 mmol/L aqueous solution or dispersion of the ionic liquid, control in water 300) was determined as 4030 μg/cm^2.

Values taken from patent publication US20240058452A1, “PHARMACEUTICAL COMPOSITION CONTAINING TEMPERATURE-RESPONSIVE IONIC LIQUID” (priority 2019, published 2024).
